Experimental data from patent publication US8791100B2 (Novartis AG, priority 2010, dated 2014).
pIC50: −log10 of the molar value.

By UniProt entry, the sequences of proteins in these tests, tags left out.
UniProt P21453, whole entry: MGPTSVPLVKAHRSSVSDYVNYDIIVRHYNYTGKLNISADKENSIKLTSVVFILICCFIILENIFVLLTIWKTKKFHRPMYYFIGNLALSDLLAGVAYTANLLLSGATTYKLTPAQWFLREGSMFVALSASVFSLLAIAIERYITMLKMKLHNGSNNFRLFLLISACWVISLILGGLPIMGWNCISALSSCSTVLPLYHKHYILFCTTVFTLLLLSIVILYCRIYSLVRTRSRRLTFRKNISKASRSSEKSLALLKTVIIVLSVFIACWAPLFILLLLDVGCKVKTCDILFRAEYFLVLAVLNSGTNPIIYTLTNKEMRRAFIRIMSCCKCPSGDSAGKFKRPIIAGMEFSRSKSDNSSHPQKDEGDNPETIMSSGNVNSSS

Target: human S1P1 receptors (Homo sapiens (Human), UniProt P21453)
Experiment: Human S1P1 Receptor Calcium FLIPR Antagonist Assay (HeLa Gα16 S1P1)
Details: relative antagonism vs probing agonist GNF-AC-1 at EC80, HeLa-S1P1/Gα16 cells

pIC50: 8.92
Compound: CCC(Nc1cccc(CN2CC(C(=O)O)C2)c1C)c1ccc(Cl)c(C)c1 (stereo not shown)
